Assay results as given in patent US20230051872A1, “Multivalent D-Peptidic Compounds for Target Proteins” (Reflexion Pharmaceuticals, Inc., priority 2019, published 2023).

Sequences of proteins named here, by UniProt entry; tags and fusion partners are left off. Residues count along the entry.
UniProt Q15116, 25-167 limits assumed: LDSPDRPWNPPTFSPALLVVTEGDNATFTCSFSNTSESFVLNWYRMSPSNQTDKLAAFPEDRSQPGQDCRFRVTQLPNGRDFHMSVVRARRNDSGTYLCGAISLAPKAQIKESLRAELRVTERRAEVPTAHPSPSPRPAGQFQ

Key:
[1] = target: T1, PD-1 (Homo sapiens, UniProt Q15116); assay: Surface plasmon resonance (SPR) binding affinity to PD-1; set-up: purchased R&D Systems 1086-PD-050; details: Table 2, variant D-peptidic domains, target protein PD-1
[2] = target: T1, PD-1; assay: PD-1 blocking ELISA (PD-1-Fc binding to PD-L1-Fc); set-up: purchased R&D Systems 1086-PD-050 (PD-1-Fc); 156-B7-100 (PD-L1-Fc); details: biotinylated PD-1-Fc, PD-L1-Fc coated plate

Row | inhibition of PD-1 binding to PD-L1 [2] | inhibition of PD-1 binding to PD-L1 ([2]; listed as RFX-977296) | SMILES | Binding Affinity KD (nM) [1]
1 | – | – | CC[C@@H](C)[C@@H](NC(=O)CNC(=O)[C@@H](C)NC(=O)[C@@H](CCCCN)NC(=O)[C@@H](CCCCN)NC(=O)[C@@H](CC(C)C)NC(=O)[C@@H](CCC(=O)O)NC(=O)[C@@H](C)NC(=O)[C@H](NC(=O)[C@@H](C)NC(=O)[C@@H](CC(=O)O)NC(=O)[C@@H](CCC(=O)O)NC(=O)[C@@H](CCCCN)NC(=O)[C@@H](C)NC(=O)[C@@H](CC(N)=O)NC(=O)[C@@H](CCCCN)NC(=O)[C@@H](CC(C)C)NC(=O)[C@@H](CC(C)C)NC(=O)[C@@H](Cc1c[nH]c2ccccc12)NC(=O)[C@@H](CCC(N)=O)NC(=O)[C@@H](CC(=O)O)NC(=O)[C@H](NC(=O)[C@H](N)[C@H](C)O)[C@H](C)CC)[C@H](C)CC)C(=O)N[C@@H](C(=O)N[C@H](CO)C(=O)N[C@H](CC(=O)O)C(=O)N[C@H](Cc1ccccc1)C(=O)N[C@H](Cc1ccc(O)cc1)C(=O)N[C@H](Cc1ccccc1)C(=O)N[C@H](CC(N)=O)C(=O)N[C@H](C)C(=O)N[C@@H](C(=O)N[C@H](CC(N)=O)C(=O)N[C@H](CCCCN)C(=O)N[C@H](C)C(=O)N[C@H](CCCCN)C(=O)N[C@@H](C(=O)N[C@@H](C(=O)N[C@H](CCC(=O)O)C(=O)N[C@H](CCC(=O)O)C(=O)N[C@@H](C(=O)N[C@H](CC(N)=O)C(=O)N[C@H](C)C(=O)N[C@H](CC(C)C)C(=O)N[C@H](CCCCN)C(=O)N[C@H](CC(N)=O)C(=O)N[C@H](CCC(=O)O)C(=O)N[C@@H](C(=O)N[C@H](CC(C)C)C(=O)N[C@H](CCCCN)C(=O)N[C@H](C)C(=O)N[C@H](Cc1c[nH]cn1)C(=O)N[C@H](C)C(=O)O)[C@H](C)CC)C(C)C)C(C)C)[C@H](C)O)[C@H](C)CC)[C@H](C)O [GA domain wt, tidqwllknakedaiaelkkaGitsdfyfnainkaktveevnalkneilkaha, reference compound] | No
2 | no detectable inhibition | failed to block | CC[C@@H](C)[C@@H](NC(=O)CNC(=O)[C@@H](C)NC(=O)[C@@H](CCCCN)NC(=O)[C@@H](CCCCN)NC(=O)[C@@H](CC(C)C)NC(=O)[C@@H](CCC(=O)O)NC(=O)[C@@H](C)NC(=O)[C@H](NC(=O)[C@@H](C)NC(=O)[C@@H](CC(=O)O)NC(=O)[C@@H](CCC(=O)O)NC(=O)[C@@H](CCCCN)NC(=O)[C@@H](C)NC(=O)[C@@H](CC(N)=O)NC(=O)[C@@H](CCCCN)NC(=O)[C@@H](CC(C)C)NC(=O)[C@@H](CC(C)C)NC(=O)[C@@H](Cc1c[nH]c2ccccc12)NC(=O)[C@@H](CCC(N)=O)NC(=O)[C@@H](CC(=O)O)NC(=O)[C@H](NC(=O)[C@H](N)[C@H](C)O)[C@H](C)CC)[C@H](C)CC)C(=O)N[C@@H](C(=O)N[C@H](CO)C(=O)N[C@H](CC(=O)O)C(=O)N[C@H](CC(C)C)C(=O)N[C@H](Cc1ccc(O)cc1)C(=O)N[C@H](Cc1ccccc1)C(=O)N[C@H](CC(N)=O)C(=O)N[C@H](Cc1c[nH]c2ccccc12)C(=O)N[C@@H](C(=O)N[C@H](CC(N)=O)C(=O)N[C@@H](C(=O)N[C@H](C)C(=O)NCC(=O)N[C@H](CO)C(=O)N[C@@H](C(=O)N[C@H](CO)C(=O)N[C@H](CO)C(=O)N[C@@H](C(=O)N[C@H](CC(N)=O)C(=O)N[C@H](Cc1ccccc1)C(=O)N[C@H](Cc1c[nH]cn1)C(=O)N[C@H](CCCCN)C(=O)N[C@H](CC(N)=O)C(=O)N[C@H](Cc1ccc(O)cc1)C(=O)N[C@@H](C(=O)N[C@H](CC(C)C)C(=O)N[C@H](CCCCN)C(=O)N[C@H](C)C(=O)N[C@H](Cc1c[nH]cn1)C(=O)N[C@H](C)C(N)=O)[C@H](C)CC)C(C)C)C(C)C)C(C)C)[C@H](C)CC)[C@H](C)O [Compound 977296, tidqwllknakedaiaelkkaGitsdlyfnwinvaGsvssvnfhknyilkaha] | –
